By UniProt entry, the sequences of proteins in these tests, tags left out.
UniProt P97266, whole entry, looked up: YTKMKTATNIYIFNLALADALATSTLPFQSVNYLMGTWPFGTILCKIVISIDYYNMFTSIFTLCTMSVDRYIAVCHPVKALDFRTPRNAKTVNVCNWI

According to ChEMBL document CHEMBL1153667, “6N-Cinnamoyl--naltrexamine and its p-nitro derivative. High efficacy -opioid agonists with weak antagonist actions” (Bioorg Med Chem Lett, 1996):

Molecular target: Mu-type opioid receptor (Cavia porcellus, UniProt P97266)
Test: Compound was evaluated for binding affinity against [3H]- DAMGO labeled mu opioid receptor in guinea-pig brain homogenate.

## COC(=O)/C=C/C(=O)N[C@@H]1CC[C@@]2(O)[C@H]3Cc4ccc(O)c5c4[C@@]2(CCN3CC2CC2)[C@H]1O5
  pKi: 9.40

pKi: −log10 of the molar value.
